Conditions: at concentrations required for NMR (5 mM samples prepared in 50% acetonitrile-d3/50% water instead)

## occidiofungin
  solubility in aqueous solutions: not soluble

Reference: patent publication US10092622B2, “Occidiofungin, a unique antifungal glycopeptide produced by a strain of Burkholderia contaminans” (M[…] University Research and Technology Corporation, priority 2009, dated 2018)
